Values of other authors, collected in patent US20250354049A1, “CORROSION-INHIBITING AGENTS FOR REDUCING DISSOLVED OXYGEN CONCENTRATIONS WITHIN UPSTREAM OILFIELD SYSTEMS” (Finoric LLC, priority 2024, published 2025).

Conditions: solvents named; cited from earlier work

Q: With O=S([O-])[O-].[Na+].[Na+] [Sodium Sulfite] as the compound, how does the “Solubility in Other Solvents” value read?
A: -Ethanol
